Laboratory results as given in US20260384449A1, “MACROCYCLIC AMINOPYRIDINE COMPOUNDS AS EGFR INHIBITORS” (published 2026).

Sequences of proteins named here, by UniProt entry; tags and fusion partners are left off. A change or cut given only in a name is not applied to a line headed by its entry. A line that says so, or that is headed by a name, gives the form on record, which may keep a tag or linker. Residues count along the entry.
UniProt P00533, 25-1210 C797S/L858R limits assumed: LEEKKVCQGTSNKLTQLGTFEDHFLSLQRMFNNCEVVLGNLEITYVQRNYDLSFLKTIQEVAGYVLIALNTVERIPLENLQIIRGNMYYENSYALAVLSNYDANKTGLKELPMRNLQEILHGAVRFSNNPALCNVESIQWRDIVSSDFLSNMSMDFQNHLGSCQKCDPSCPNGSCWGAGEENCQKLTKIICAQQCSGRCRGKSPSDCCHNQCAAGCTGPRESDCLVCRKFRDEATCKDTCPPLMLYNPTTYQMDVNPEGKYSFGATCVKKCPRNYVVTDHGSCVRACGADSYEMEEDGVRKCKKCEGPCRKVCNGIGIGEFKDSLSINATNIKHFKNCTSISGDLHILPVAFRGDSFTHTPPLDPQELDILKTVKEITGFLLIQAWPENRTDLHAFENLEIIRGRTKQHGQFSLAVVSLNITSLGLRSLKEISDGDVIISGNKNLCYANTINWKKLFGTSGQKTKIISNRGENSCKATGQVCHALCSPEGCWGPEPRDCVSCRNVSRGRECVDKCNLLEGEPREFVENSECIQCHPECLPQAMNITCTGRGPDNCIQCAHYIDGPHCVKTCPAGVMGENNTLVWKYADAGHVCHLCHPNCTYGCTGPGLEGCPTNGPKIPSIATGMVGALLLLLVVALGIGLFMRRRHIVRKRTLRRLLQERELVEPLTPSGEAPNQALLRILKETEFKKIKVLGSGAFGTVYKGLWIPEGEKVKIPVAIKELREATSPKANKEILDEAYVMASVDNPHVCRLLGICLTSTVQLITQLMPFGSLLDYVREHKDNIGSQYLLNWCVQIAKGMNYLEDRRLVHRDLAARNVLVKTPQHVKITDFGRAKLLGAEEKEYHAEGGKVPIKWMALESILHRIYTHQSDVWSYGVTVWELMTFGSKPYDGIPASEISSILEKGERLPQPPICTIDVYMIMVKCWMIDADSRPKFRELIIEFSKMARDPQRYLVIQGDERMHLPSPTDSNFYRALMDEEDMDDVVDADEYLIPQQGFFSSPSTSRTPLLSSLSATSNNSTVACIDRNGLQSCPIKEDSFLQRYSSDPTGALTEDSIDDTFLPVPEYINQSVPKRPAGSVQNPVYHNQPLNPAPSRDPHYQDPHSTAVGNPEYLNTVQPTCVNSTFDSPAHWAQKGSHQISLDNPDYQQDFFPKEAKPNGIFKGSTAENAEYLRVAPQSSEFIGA
UniProt P00533, 25-1210 T790M/C797S/L858R limits assumed: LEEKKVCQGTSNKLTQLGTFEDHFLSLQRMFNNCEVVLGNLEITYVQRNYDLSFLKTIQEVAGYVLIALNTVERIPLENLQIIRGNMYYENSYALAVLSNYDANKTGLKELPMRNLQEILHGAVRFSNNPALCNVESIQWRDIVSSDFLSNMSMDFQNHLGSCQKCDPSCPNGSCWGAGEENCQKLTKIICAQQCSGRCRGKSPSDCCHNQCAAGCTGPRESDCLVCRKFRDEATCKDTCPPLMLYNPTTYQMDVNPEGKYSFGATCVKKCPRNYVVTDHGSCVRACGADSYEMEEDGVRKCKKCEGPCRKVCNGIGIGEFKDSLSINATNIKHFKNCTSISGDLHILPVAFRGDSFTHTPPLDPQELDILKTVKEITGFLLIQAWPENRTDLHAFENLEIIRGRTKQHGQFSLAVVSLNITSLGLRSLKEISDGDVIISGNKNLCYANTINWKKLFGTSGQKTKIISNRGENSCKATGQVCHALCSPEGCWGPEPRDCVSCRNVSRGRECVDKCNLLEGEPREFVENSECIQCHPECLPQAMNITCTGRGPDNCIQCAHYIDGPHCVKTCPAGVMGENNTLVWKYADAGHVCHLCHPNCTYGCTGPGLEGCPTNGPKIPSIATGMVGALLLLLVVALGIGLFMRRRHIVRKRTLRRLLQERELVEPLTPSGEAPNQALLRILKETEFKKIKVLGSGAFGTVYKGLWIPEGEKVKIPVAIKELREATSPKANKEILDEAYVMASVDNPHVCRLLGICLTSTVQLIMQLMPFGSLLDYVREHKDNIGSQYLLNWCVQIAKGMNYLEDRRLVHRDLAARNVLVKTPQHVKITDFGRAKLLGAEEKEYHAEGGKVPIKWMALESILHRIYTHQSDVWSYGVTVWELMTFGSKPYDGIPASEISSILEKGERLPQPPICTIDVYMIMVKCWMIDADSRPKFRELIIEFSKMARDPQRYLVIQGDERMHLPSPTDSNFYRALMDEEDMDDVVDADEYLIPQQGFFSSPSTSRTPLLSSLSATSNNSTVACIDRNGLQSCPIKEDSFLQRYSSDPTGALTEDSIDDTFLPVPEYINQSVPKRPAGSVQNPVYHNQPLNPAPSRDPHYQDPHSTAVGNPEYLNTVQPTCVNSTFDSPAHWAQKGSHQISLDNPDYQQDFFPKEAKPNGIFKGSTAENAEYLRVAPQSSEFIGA
UniProt P00533, with tags, fused parts or gaps DEL746-750/C797S limits assumed: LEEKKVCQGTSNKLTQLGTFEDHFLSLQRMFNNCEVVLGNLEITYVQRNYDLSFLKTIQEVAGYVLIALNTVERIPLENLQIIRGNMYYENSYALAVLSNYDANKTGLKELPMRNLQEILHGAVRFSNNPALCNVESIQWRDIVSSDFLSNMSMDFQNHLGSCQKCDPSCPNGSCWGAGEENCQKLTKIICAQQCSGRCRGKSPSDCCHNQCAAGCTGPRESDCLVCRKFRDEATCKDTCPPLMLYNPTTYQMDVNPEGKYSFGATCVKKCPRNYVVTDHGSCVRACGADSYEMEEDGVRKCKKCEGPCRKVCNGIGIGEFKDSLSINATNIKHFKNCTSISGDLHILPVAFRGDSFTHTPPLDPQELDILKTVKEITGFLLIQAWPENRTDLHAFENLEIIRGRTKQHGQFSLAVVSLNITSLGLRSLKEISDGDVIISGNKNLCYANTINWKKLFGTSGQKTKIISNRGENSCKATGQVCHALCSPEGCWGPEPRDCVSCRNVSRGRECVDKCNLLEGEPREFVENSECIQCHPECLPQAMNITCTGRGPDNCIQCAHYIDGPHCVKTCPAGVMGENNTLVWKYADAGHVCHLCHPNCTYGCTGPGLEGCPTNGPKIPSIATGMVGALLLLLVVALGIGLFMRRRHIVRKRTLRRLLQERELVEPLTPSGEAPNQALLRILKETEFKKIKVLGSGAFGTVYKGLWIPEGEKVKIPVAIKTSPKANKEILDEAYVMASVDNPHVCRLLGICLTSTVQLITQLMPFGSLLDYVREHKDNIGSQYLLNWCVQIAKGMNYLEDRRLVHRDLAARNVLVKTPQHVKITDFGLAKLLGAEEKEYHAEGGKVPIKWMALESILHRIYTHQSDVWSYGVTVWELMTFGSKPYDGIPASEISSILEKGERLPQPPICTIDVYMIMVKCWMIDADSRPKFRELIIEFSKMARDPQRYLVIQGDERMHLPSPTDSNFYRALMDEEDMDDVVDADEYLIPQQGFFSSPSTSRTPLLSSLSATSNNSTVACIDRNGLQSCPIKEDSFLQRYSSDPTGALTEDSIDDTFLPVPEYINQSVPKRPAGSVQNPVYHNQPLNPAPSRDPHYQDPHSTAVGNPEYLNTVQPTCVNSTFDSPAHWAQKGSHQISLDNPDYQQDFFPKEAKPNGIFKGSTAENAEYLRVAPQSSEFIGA
UniProt P00533, with tags, fused parts or gaps DEL746-750/T790M/C797S limits assumed: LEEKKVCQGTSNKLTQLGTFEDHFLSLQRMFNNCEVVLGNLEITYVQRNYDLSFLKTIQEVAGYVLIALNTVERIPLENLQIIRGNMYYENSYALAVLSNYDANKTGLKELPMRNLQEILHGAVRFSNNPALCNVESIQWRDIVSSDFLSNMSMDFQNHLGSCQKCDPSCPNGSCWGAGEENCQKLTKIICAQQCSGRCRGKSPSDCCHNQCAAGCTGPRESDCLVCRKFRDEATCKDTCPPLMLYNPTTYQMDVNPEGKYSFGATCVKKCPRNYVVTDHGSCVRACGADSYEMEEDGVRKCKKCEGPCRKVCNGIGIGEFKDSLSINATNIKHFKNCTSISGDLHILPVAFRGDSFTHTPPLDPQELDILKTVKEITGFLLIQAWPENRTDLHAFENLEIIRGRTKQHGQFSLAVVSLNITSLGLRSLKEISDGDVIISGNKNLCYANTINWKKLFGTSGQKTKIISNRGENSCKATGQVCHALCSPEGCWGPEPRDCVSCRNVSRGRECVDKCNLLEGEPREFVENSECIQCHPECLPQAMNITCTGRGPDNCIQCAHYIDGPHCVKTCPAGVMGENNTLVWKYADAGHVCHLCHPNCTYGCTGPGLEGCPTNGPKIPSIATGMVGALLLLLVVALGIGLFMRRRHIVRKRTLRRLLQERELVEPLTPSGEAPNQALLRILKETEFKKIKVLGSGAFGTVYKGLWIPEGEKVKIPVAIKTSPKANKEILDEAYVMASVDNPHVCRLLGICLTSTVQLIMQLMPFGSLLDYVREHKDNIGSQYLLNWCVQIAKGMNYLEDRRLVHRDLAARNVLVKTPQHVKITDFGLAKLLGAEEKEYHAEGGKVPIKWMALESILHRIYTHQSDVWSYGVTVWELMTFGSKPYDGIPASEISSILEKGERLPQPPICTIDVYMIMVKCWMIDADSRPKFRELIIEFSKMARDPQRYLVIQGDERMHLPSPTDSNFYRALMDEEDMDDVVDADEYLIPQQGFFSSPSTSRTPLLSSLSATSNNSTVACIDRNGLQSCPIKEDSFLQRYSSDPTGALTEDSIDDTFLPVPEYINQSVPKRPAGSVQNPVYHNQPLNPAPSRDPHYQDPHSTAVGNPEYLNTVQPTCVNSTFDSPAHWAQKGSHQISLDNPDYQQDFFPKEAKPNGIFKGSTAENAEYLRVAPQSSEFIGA
UniProt P00533, 25-1210 limits assumed: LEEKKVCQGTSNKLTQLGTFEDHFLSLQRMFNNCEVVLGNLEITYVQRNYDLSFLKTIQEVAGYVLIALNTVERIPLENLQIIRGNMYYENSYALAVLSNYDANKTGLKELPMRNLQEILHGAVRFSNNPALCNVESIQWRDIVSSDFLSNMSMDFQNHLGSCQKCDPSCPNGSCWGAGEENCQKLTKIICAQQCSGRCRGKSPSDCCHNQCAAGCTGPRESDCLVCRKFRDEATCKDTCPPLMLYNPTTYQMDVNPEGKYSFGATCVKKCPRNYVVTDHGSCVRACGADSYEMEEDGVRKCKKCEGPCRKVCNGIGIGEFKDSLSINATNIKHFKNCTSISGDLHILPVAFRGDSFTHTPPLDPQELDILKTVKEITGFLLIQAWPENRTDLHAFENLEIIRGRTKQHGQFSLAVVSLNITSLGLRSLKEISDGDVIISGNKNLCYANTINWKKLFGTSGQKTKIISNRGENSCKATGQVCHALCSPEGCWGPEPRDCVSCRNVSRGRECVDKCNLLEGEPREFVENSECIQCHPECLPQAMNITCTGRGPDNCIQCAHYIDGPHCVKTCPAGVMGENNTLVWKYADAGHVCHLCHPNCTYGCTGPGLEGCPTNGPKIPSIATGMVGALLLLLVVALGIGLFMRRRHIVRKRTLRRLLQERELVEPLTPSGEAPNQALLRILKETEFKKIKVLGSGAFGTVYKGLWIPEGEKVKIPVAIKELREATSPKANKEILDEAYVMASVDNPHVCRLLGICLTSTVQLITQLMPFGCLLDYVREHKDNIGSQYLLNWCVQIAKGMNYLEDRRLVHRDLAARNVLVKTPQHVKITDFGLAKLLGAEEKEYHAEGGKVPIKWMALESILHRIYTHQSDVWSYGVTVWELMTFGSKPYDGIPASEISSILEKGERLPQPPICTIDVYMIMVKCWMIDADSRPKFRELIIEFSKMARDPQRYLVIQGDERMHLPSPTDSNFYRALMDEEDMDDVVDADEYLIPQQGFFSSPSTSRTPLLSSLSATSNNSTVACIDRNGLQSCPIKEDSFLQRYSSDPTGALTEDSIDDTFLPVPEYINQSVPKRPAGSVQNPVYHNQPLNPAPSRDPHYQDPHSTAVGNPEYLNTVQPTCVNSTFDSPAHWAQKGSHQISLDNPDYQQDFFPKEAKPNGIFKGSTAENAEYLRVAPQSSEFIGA

What was measured:
[1] = target: EGFR D19TMCS (del19/T790M/C797S) (Homo sapiens, UniProt P00533, C797S/DEL746-750/T790M); test: Biochemical EGFR kinase inhibition (Lance Ultra TR-FRET), del19/T790M/C797S; conditions: read-out: EGFR D19TMCS IC50
EGFR WT = EGFR WT (Homo sapiens, UniProt P00533); test: Biochemical EGFR kinase inhibition (Lance Ultra TR-FRET), wildtype; conditions: read-out: EGFR WT IC50; ATP at Km
EGFR D19CS (del19/C797S) = EGFR D19CS (del19/C797S) (Homo sapiens, UniProt P00533, C797S/DEL746-750); test: Biochemical EGFR kinase inhibition (Lance Ultra TR-FRET), del19/C797S; conditions: read-out: EGFR D19CS IC50
EGFR LRCS (L858R/C797S) = EGFR LRCS (L858R/C797S) (Homo sapiens, UniProt P00533, C797S/L858R); test: Biochemical EGFR kinase inhibition (Lance Ultra TR-FRET), L858R/C797S; conditions: read-out: EGFR LRCS IC50
[2] = target: EGFR LRTMCS (L858R/T790M/C797S) (Homo sapiens, UniProt P00533, C797S/L858R/T790M); test: Biochemical EGFR kinase inhibition (Lance Ultra TR-FRET), L858R/T790M/C797S; conditions: read-out: EGFR LRTMCS IC50

Structure (SMILES) | IC50 ([1]; 1 mM ATP) | IC50 ([1]; ATP at Km) | IC50 (EGFR WT) | IC50 (EGFR D19CS (del19/C797S); 1 mM ATP) | IC50 (EGFR D19CS (del19/C797S); ATP at Km) | IC50 (EGFR LRCS (L858R/C797S); 1 mM ATP) | IC50 (EGFR LRCS (L858R/C797S); ATP at Km) | IC50 ([2]; 1 mM ATP) | IC50 ([2]; ATP at Km)
Cc1nn(C)c2c1-c1nccc(n1)Nc1cc(c(C#Cc3cnn(CC(F)F)c3)cn1)NCC[C@H](C)O2 | < 10 nM | < 10 nM | < 10 nM | < 10 nM | < 10 nM | 10 to 100 nM | < 10 nM | < 10 nM | < 10 nM
Cc1nn(C)c2c1-c1nccc(n1)Nc1cc(c(C#Cc3cccnc3)cn1)N[C@@H](C)CCO2 | < 10 nM | < 10 nM | 10 to 100 nM | 10 to 100 nM | < 10 nM | 100 to 1000 nM | < 10 nM | 10 to 100 nM | < 10 nM
C[C@H]1CCOc2c(cnn2C)-c2nccc(n2)Nc2cc(c(C#Cc3cnn(C4CCOCC4)c3)cn2)N1 | < 10 nM | < 10 nM | < 10 nM | 10 to 100 nM | < 10 nM | 100 to 1000 nM | < 10 nM | < 10 nM | < 10 nM
C[C@H]1CCNc2cc(ncc2C#Cc2cnn(C)c2)Nc2ccnc(n2)-c2cnn(C)c2O1 | < 10 nM | < 10 nM | < 10 nM | < 10 nM | < 10 nM | 10 to 100 nM | < 10 nM | < 10 nM | < 10 nM
Cc1nn(C)c2c1-c1nccc(n1)Nc1cc(c(C#Cc3ccc(N4CCOCC4)cc3)cn1)N[C@@H](C)CCO2 | < 10 nM | < 10 nM | 100 to 1000 nM | 100 to 1000 nM | 10 to 100 nM | > 1000 nM | 10 to 100 nM | 10 to 100 nM | < 10 nM
C[C@H]1CCNc2cc(ncc2C#Cc2cnn(C3CCOCC3)c2)Nc2ccnc(n2)-c2cnn(C)c2O1 | < 10 nM | < 10 nM | 10 to 100 nM | 10 to 100 nM | < 10 nM | 100 to 1000 nM | < 10 nM | < 10 nM | < 10 nM
C[C@H]1CCNc2cc(ncc2C#Cc2cccnc2)Nc2ccnc(n2)-c2cnn(C)c2O1 | < 10 nM | < 10 nM | < 10 nM | < 10 nM | < 10 nM | 10 to 100 nM | < 10 nM | < 10 nM | < 10 nM
COc1nn(C)cc1C#Cc1cnc2cc1NCC[C@H](C)Oc1c(c(C)nn1C)-c1nccc(n1)N2 | < 10 nM | < 10 nM | < 10 nM | < 10 nM | < 10 nM | 10 to 100 nM | < 10 nM | < 10 nM | < 10 nM
Cc1nn(C)cc1C#Cc1cnc2cc1NCC[C@H](C)Oc1c(c(C)nn1C)-c1nccc(n1)N2 | < 10 nM | < 10 nM | 10 to 100 nM | 10 to 100 nM | < 10 nM | 10 to 100 nM | < 10 nM | < 10 nM | < 10 nM
CCn1ncc2c1OCC[C@H](C)Nc1cc(ncc1C#Cc1cnn(C)c1)Nc1ccnc-2n1 | < 10 nM | < 10 nM | 10 to 100 nM | 100 to 1000 nM | 10 to 100 nM | 100 to 1000 nM | < 10 nM | < 10 nM | < 10 nM
Cc1cnc(C#Cc2cnc3cc2N[C@@H](C)CCOc2c(cnn2C)-c2nccc(n2)N3)cn1 | < 10 nM | < 10 nM | 10 to 100 nM | 10 to 100 nM | 10 to 100 nM | 100 to 1000 nM | 10 to 100 nM | < 10 nM | < 10 nM
C[C@H]1CCOc2c(cnn2C)-c2nccc(n2)Nc2cc(c(C#Cc3cnn(C(F)F)c3)cn2)N1 | < 10 nM | < 10 nM | 10 to 100 nM | 10 to 100 nM | < 10 nM | 100 to 1000 nM | < 10 nM | < 10 nM | < 10 nM
Cn1ncc2c1OCCC(C)(C)Nc1cc(ncc1C#Cc1cnn(CC(F)(F)F)c1)Nc1ccnc-2n1 | 10 to 100 nM | 10 to 100 nM | > 1000 nM | > 1000 nM | > 1000 nM | > 1000 nM | 100 to 1000 nM | 100 to 1000 nM | < 10 nM
COc1nn(C)cc1C#Cc1cnc2cc1N[C@@H](C)CCOc1c(c(C)nn1C)-c1nccc(n1)N2 | < 10 nM | < 10 nM | 10 to 100 nM | 10 to 100 nM | < 10 nM | 10 to 100 nM | < 10 nM | < 10 nM | < 10 nM
CC(C)n1ncc2c1OCC[C@H](C)Nc1cc(ncc1C#Cc1cnn(C(F)F)c1)Nc1ccnc-2n1 | 10 to 100 nM | < 10 nM | 100 to 1000 nM | > 1000 nM | > 1000 nM | > 1000 nM | 100 to 1000 nM | 10 to 100 nM | < 10 nM
C[C@H]1CCNc2cc(ncc2C#Cc2cnn(CC(F)(F)F)c2)Nc2ccnc(n2)-c2cnn(C)c2O1 | < 10 nM | < 10 nM | 10 to 100 nM | 10 to 100 nM | 10 to 100 nM | 10 to 100 nM | < 10 nM | < 10 nM | < 10 nM
Cn1cc(C#Cc2cnc3cc2NC[C@H](F)COc2c(cnn2C)-c2nccc(n2)N3)cn1 | < 10 nM | < 10 nM | 100 to 1000 nM | > 1000 nM | 100 to 1000 nM | > 1000 nM | 100 to 1000 nM | 10 to 100 nM | < 10 nM

Where two headings read alike, the source gives them in different places.
